## AlphaSeq binding of Ab-95 light chain variants to a spike HR2 peptide

The target is the same throughout: PDVDLGDISGINAS, from the HR2 region of SARS-CoV-2 spike.

The variants keep the heavy chain, the linker and the frameworks of Ab-95 (scFv order VH, the linker GGGGSGGGGSGGGGS, VL).
VH: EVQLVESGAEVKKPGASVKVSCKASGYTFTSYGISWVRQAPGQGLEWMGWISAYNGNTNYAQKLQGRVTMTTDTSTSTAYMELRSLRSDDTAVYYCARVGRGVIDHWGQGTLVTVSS
VL: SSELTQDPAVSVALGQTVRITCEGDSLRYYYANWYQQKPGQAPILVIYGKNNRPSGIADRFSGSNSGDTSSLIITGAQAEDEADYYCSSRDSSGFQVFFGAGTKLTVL

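Phage display of a naive human antibody library on the peptide gave the parent. In library AAYL52, one, two or three CDR residues were substituted; doubles and triples were drawn at random. The scFvs were displayed on barcoded MATa yeast, the peptide on MATalpha yeast. The frequency of each diploid, read from paired DNA barcodes, reflects how well the two displayed proteins bind. The ratio of observed to expected reads was calibrated, replicate by replicate, on BCL2-family standards whose Kd was known from biolayer interferometry. There are three technical replicates.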

Positions count from residue 1 of the parent VL; Y30N puts N in place of Y. The read-out is the apparent dissociation constant on a log10 scale (nM): the lower, the stronger. A mean of the replicates is given; it leaves out those without a signal. Where no diploid with the target was found in any replicate, the entry reads "no signal": below detection, most likely a poor binder, though not proof of it. Entries are sorted by rising average, undetected variants last.

| changes | mean log10 Kd (nM) | seen in |
|---|---|---|
| Y30N+N51K+Q96H | 1.22 | 3 of 3 |
| E23I+Y30M | 1.53 | 3 of 3 |
| Y29A+N52A | 1.83 | 3 of 3 |
| Y29A+S92F+V97H | 1.97 | 3 of 3 |
| Y30S+P54H+F95V | 1.98 | 3 of 3 |
| E23C+D25P+N52M | 2.28 | 3 of 3 |
| S55Q+G94R+F98M | 2.29 | 3 of 3 |
| S88H+G94H+Q96F | 2.32 | 3 of 3 |
| R90I+V97C+F98K | 2.42 | 3 of 3 |
| L27S+Y30V+S89A | 2.50 | 3 of 3 |
| A32P+S55G+G94E | 2.53 | 1 of 3 |
| R28D+D91C+F95N | 2.57 | 3 of 3 |
| R28T+N51D+F95A | 2.60 | 3 of 3 |
| D25S+R28M+N52A | 2.61 | 3 of 3 |
| S89G+S93R+G94F | 2.70 | 3 of 3 |
| E23T+S88P+F95N | 2.75 | 3 of 3 |
| S26L+S55Q+S92K | 2.77 | 3 of 3 |
| R90G+F95T | 2.85 | 3 of 3 |
| R90Q+F95K+Q96S | 2.86 | 3 of 3 |
| Y29E+V97R | 2.89 | 3 of 3 |
| D25K+P54Q+S93A | 2.94 | 3 of 3 |
| R53S+P54D+F95Y | 3.04 | 3 of 3 |
| N51M+V97P+F98T | 3.05 | 1 of 3 |
| E23V+D25Y+R28M | 3.08 | 3 of 3 |
| G24M+N33W+F98G | 3.09 | 1 of 3 |
| N52E+S93G+G94H | 3.11 | 2 of 3 |
| E23K+Y30K+S55R | 3.16 | 3 of 3 |
| S26N+K50L+S92W | 3.17 | 1 of 3 |
| Y29W+S89F+D91Y | 3.18 | 3 of 3 |
| P54S+F95P+F98S | 3.30 | 1 of 3 |
| Y31H+S89L+D91H | 3.37 | 1 of 3 |
| A32M+G94E+F98A | 3.37 | 1 of 3 |
| L27T+P54T+R90L | 3.44 | 1 of 3 |
| N51G+N52A+S93I | 3.45 | 3 of 3 |
| E23V+G24W+S89A | 3.49 | 3 of 3 |
| S26Y+D91V+V97W | 3.50 | 2 of 3 |
| G24Y+A32S+S89M | 3.68 | 1 of 3 |
| E23V+S26H+G94Y | 3.68 | 3 of 3 |
| G49S+N51H+S55E | 3.74 | 2 of 3 |
| G24W+S26Y+L27F | 3.75 | 3 of 3 |
| Y30V+A32D+P54R | 3.76 | 2 of 3 |
| Y29P+Q96P | 3.76 | 2 of 3 |
| K50Y+N52C+S88Y | 3.77 | 1 of 3 |
| E23V+D25C+K50L | 3.80 | 1 of 3 |
| A32P+G49R+V97C | 3.81 | 2 of 3 |
| G49N+N51R+S92M | 3.83 | 1 of 3 |
| E23H+S88L+R90G | 3.83 | 2 of 3 |
| Y31I+N52R+Q96M | 3.88 | 2 of 3 |
| S89A+S92F+G94Y | 3.93 | 1 of 3 |
| G49Q+S89Q+S92L | 4.18 | 3 of 3 |
| N51Y+S88T+S89I | 4.20 | 2 of 3 |
| Y31V+R90Q+F98V | 4.26 | 2 of 3 |
| G24K+R53F+R90W | 4.26 | 3 of 3 |
| D25S+G49M+R90P | 4.30 | 3 of 3 |
| N51C+P54V+G94Y | 4.32 | 2 of 3 |
| Y29V+N33V | 4.37 | 2 of 3 |
| Y29D+N52E+R90H | 4.39 | 3 of 3 |
| G24N+S26T+P54C | 4.45 | 2 of 3 |
| G24I+S88T+G94N | 4.61 | 2 of 3 |
| S26D+G49T+R53G | 4.64 | 1 of 3 |
| G24F+Y31L+A32R | 4.73 | 2 of 3 |
| L27W+N51M | 4.86 | 1 of 3 |
| N51L+S88R+Q96V | 5.15 | 2 of 3 |
| E23G+L27A+N33R | 5.24 | 1 of 3 |
| Y29M+R53F+P54N | 5.48 | 1 of 3 |
| A32Y+N51H+S88V | no signal | 0 of 3 |
| R28A+K50Q+R53F | no signal | 0 of 3 |
| R90V+D91K+F98Y | no signal | 0 of 3 |
| L27K+Y31K+S55H | no signal | 0 of 3 |
| E23Y+Y30F+R53S | no signal | 0 of 3 |
| G24L+G49V+S88Y | no signal | 0 of 3 |
| N33T+G49L+G94F | no signal | 0 of 3 |
| G24H+Y31W+N33G | no signal | 0 of 3 |
| K50E+R90A+S92I | no signal | 0 of 3 |
| Y29R+A32R+S89D | no signal | 0 of 3 |
| R28I+K50T+P54K | no signal | 0 of 3 |
| S55N+S88P+F95R | no signal | 0 of 3 |

For reference, the parent read 2.31 as the reference entry and 2.25 as a member of this library. As a blank, each scFv also met three strains without target: over library AAYL52, 28% of these pairings were detected, typically at 3.91 and seldom below 2.90.

Data: MIT Lincoln Laboratory AlphaSeq set, Engelhart et al. 2022, doi:10.1038/s41597-022-01779-4, as distributed in FLAb.